# Ab-14 heavy chain CDR variants: yeast mating affinities

Antigen: PDVDLGDISGINAS, a 14-residue peptide of the SARS-CoV-2 spike HR2 region.

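The starting antibody came from a phage panning campaign against this peptide. The library (AAYL49) carries one to three amino acid substitutions per variant, with no insertions or deletions. Affinity was read by AlphaSeq, a pooled yeast mating assay with surface-displayed partners. After mating in shaken culture at 30 °C for 16 h, diploids were selected and their barcode pairs sequenced. A regression on co-assayed BCL2-family reference pairs converts the normalised counts of each replicate to an apparent Kd. The assay was run in three technical replicates.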

Each scFv is VH, the linker GGGGSGGGGSGGGGS, VL, as in the parent Ab-14, and differs from it in the CDRs of the heavy chain only.
VH: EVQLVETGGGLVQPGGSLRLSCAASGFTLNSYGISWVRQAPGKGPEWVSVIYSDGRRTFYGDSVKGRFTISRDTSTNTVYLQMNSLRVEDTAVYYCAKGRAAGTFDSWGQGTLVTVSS
VL: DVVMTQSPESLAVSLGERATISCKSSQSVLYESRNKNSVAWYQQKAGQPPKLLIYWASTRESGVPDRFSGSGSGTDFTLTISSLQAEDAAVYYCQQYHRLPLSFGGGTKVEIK

Sequences are complete VH domains. The read-out is the apparent dissociation constant on a log10 scale (nM): the lower, the stronger. "nd" marks a missing value. The strain was present, yet no cells mated with the target were sequenced in that replicate, which points to weak or no binding. As a blank, each scFv also met three strains without target: over library AAYL49, 15% of these pairings were detected, typically at 4.06 and seldom below 2.83. For each scFv, signals with the empty controls are counted beside the result.

Variant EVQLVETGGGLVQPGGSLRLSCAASGFTLNSYGISWVRQAPGKGPEWVSVIYSHGDRTIYGDSVKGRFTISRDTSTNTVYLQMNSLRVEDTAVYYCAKGRAAGTFDSWGQGTLVTVSS showed nd, nd, nd (controls 0 of 9).
Variant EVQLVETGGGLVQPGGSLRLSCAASGFTLNSYGISWVRQAPGKGPEWVSVIYSDGRRTFYGDSVKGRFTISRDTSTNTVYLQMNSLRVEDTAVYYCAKERARGTFDSWGQGTLVTVSS showed 0.07, 0.48, 0.60 (controls 1 of 9).
Variant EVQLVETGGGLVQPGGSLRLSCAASGFTLNSYGISWVRQAPGKGPEWVSVIYSDGRRTFYGDSVKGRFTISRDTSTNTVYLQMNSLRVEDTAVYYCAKGRASGCFDSWGQGTLVTVSS showed nd, nd, nd (controls 0 of 9).
Variant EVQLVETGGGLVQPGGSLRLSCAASGFTLNSYGISWVRQAPGKGPEWVSVYYSDGRRVFYGDGVKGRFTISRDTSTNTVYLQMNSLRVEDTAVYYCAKGRAAGTFDSWGQGTLVTVSS showed nd, 4.69, nd (controls 3 of 9).
Variant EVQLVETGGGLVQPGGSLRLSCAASGFTLNSEGISWVRQAPGKGPEWVSVIYSDGRRTFYGDSVFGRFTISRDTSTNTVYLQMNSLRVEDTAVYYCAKGRAAGTFDSWGQGTLVTVSS showed nd, nd, nd (controls 1 of 9).
Variant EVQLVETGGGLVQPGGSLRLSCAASDFTLNSYGISWVRQAPGKGPEWVSVHYSFGRRTFYGDSVKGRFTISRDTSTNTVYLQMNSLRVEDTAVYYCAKGRAAGTFDSWGQGTLVTVSS showed nd, nd, nd (controls 2 of 9).
Variant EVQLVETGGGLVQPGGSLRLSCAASGFTLNSAGISWVRQAPGKGPEWVSVIDSDGRRTFYGDSVKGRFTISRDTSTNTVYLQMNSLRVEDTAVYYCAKGAAAGTFDSWGQGTLVTVSS showed 6.70, nd, nd (controls 6 of 9).
Variant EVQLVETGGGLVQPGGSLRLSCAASGFYLNSYGISWVRQAPGKGPEWVSVIYSDGRRTFYGYSVKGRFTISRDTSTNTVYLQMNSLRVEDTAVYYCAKGRAAGTFDSWGQGTLVTVSS showed nd, nd, nd (controls 0 of 9).
Variant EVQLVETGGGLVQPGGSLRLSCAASGFTLNSYGISWVRQAPGKGPEWVSVIYSDGRRTFYQDSTKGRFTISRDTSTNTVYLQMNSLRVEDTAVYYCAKGRAHGTFDSWGQGTLVTVSS showed nd, nd, nd (controls 1 of 9).
Variant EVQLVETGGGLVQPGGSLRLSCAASGFTLNSYGCSWVRQAPGKGPEWVSVIYSDGRRTFYGDSVKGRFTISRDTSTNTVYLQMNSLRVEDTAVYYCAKGRAAGCFDGWGQGTLVTVSS showed nd, nd, nd (controls 1 of 9).
Variant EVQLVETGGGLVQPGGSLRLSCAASGFTLNSYGISWVRQAPGKGPEWVSVHYSEGRRTFYGDSVKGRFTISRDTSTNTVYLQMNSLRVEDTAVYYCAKGRNAGTFDSWGQGTLVTVSS showed nd, nd, nd (controls 1 of 9).
Variant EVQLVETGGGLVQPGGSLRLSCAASGRTLNSYGISWVRQAPGKGPEWVSVIYSGGRRTFYGDSVKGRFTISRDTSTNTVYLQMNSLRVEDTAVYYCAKGRSAGTFDSWGQGTLVTVSS showed nd, nd, nd (controls 0 of 9).
Variant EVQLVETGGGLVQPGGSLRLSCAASGFTLNSYGISWVRQAPGKGPEWVSVIYSDGRRTFYGASVKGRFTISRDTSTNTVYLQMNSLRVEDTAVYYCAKGWAAGTFDSWGQGTLVTVSS showed nd, 4.04, nd (controls 2 of 9).
Variant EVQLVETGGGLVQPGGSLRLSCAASTFTLNSYGLSWVRQAPGKGPEWVSVIYSDGRRTFYGDSVKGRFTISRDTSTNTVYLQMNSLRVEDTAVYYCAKGRAGGTFDSWGQGTLVTVSS showed nd, nd, nd (controls 2 of 9).
Variant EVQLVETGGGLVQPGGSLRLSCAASGFTLNENGISWVRQAPGKGPEWVSVIYSDGRRTFYGDSVAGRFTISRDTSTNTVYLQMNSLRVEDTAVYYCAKGRAAGTFDSWGQGTLVTVSS showed 3.97, 1.74, nd (controls 0 of 9).
Variant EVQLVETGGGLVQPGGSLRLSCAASGFIVNSYGISWVRQAPGKGPEWVSVIYSDRRRTFYGDSVKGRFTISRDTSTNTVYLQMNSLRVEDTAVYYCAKGRAAGTFDSWGQGTLVTVSS showed nd, 4.23, nd (controls 3 of 9).
Variant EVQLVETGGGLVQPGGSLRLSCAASGFTLNSYGISWVRQAPGKGPEWVSVFYSNGRRTFYGDSVKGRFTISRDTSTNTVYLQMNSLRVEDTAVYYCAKGRAPGTFDSWGQGTLVTVSS showed nd, nd, nd (controls 2 of 9).
Variant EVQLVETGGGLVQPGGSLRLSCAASGFTLNSQGISWVRQAPGKGPEWVSVIYSDGRRIFYPDSVKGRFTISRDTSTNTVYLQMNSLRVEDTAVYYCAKGRAAGTFDSWGQGTLVTVSS showed nd, nd, nd (controls 3 of 9).
Variant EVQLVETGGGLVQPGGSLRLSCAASCFTLNSYGISWVRQAPGKGPEWVSVIYSDGRRTFYGDSVKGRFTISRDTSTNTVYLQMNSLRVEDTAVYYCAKGRAAGYFDSWGQGTLVTVSS showed 4.24, 3.02, 3.01 (controls 4 of 9).
Variant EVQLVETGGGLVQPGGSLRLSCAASGFTLNSYGISWVRQAPGKGPEWVSVIPSDGRRTFYGDSVKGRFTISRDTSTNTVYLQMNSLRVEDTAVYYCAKGRNYGTFDSWGQGTLVTVSS showed nd, nd, nd (controls 0 of 9).
Variant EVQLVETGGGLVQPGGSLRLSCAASGFTLSNYGISWVRQAPGKGPEWVSVIYSDGRRTFYGDSVKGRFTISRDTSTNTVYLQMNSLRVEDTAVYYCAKGRAAGAFDSWGQGTLVTVSS showed nd, nd, nd (controls 0 of 9).
Variant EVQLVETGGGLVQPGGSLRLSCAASGFTLNFYGISWVRQAPGKGPEWVSVIYSDGRRLFYGDSDKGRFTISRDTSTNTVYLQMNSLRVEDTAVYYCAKGRAAGTFDSWGQGTLVTVSS showed 5.28, nd, nd (controls 0 of 9).
Variant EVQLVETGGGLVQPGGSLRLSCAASDFTLNSYGISWVRQAPGKGPEWVSVIYSTGRRTFYGDSVKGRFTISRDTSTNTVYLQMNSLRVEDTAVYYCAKGRAAGTFDSWGQGTLVTVSS showed nd, nd, nd (controls 0 of 9).
Variant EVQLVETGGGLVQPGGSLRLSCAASGFTLLSYGISWVRQAPGKGPEWVSVIYSDIRRTFYGDSVKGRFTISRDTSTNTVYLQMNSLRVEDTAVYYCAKGRKAGTFDSWGQGTLVTVSS showed 4.49, 3.04, nd (controls 6 of 9).
Variant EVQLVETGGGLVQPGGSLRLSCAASRFTENSYGISWVRQAPGKGPEWVSVIYSDGRRTFYRDSVKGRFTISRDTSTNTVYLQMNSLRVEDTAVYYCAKGRAAGTFDSWGQGTLVTVSS showed nd, nd, nd (controls 1 of 9).

Extract of 2 entries:

VH	log10 Kd (nM) by replicate	signal with controls
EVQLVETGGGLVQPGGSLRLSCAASGFTLNSYGISWVRQAPGKGPEWVSVIPSDGRRTFYGDSVKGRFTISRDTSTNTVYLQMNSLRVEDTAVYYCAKGRNYGTFDSWGQGTLVTVSS	nd, nd, nd	0 of 9
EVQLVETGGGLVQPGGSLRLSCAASDFTLNSYGISWVRQAPGKGPEWVSVHYSFGRRTFYGDSVKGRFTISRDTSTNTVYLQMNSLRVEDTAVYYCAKGRAAGTFDSWGQGTLVTVSS	nd, nd, nd	2 of 9

In this assay the parent's reference entry averaged 0.65; its copy inside this library read 4.11 (one replicate of three).

Data: MIT Lincoln Laboratory AlphaSeq set, Engelhart et al. 2022, doi:10.1038/s41597-022-01779-4, as distributed in FLAb.